Measurements reported in the NIST ThermoML archive (doi:10.1016/j.jct.2015.02.007).

Test: xn = mol fraction of the nth substance listed
Settings: 100 kPa, Liquid; for mass density: Vibrating tube method; for speed of sound: Pulse-echo method

OCCOCCOCCOCCO [tetraethylene glycol] + O
Settings | mass density [kg/m3] | speed of sound [m/s]
303.15 K, x1 = 0.4024 | 1112.21 | –
303.15 K, x1 = 0.4964 | 1113.62 | –
303.15 K, x1 = 0.5985 | 1114.54 | –
303.15 K, x1 = 0.7018 | 1115.1 | –
303.15 K, x1 = 0.759 | 1115.31 | –
303.15 K, x1 = 0.8201 | 1115.48 | –
303.15 K, x1 = 0.8353 | 1115.52 | –
303.15 K, x1 = 0.8804 | 1115.62 | –
303.15 K, x1 = 0.9237 | 1115.71 | –
303.15 K, x1 = 0.9719 | 1115.84 | –
303.15 K, x1 = 1 | 1115.94 | –
308.15 K, x1 = 0.0003 | – | 1521.8
308.15 K, x1 = 0.0008 | – | 1524.3
308.15 K, x1 = 0.002 | – | 1530.1
308.15 K, x1 = 0.0035 | – | 1537.7
308.15 K, x1 = 0.0054 | – | 1546.8
308.15 K, x1 = 0.0081 | – | 1558.8
308.15 K, x1 = 0.0108 | – | 1570.2
308.15 K, x1 = 0.0116 | 1010.66 | –
308.15 K, x1 = 0.0149 | – | 1586.6
308.15 K, x1 = 0.019 | – | 1601.5
308.15 K, x1 = 0.0203 | 1021.25 | –
308.15 K, x1 = 0.0233 | – | 1615.5
308.15 K, x1 = 0.0282 | – | 1630.2
308.15 K, x1 = 0.0351 | – | 1647.9
308.15 K, x1 = 0.0406 | 1041.61 | –
308.15 K, x1 = 0.0413 | – | 1661.4
308.15 K, x1 = 0.0481 | – | 1674
308.15 K, x1 = 0.0537 | – | 1682.8
308.15 K, x1 = 0.0593 | – | 1690.3
308.15 K, x1 = 0.0605 | 1056.63 | –
308.15 K, x1 = 0.0659 | – | 1697.7
308.15 K, x1 = 0.0714 | – | 1702.8
308.15 K, x1 = 0.0755 | – | 1705.9
308.15 K, x1 = 0.0806 | 1068.08 | –
308.15 K, x1 = 0.0811 | – | 1709.5
308.15 K, x1 = 0.083 | – | 1710.6
308.15 K, x1 = 0.0851 | – | 1711.6
308.15 K, x1 = 0.0898 | – | 1713.7
308.15 K, x1 = 0.0935 | – | 1715
308.15 K, x1 = 0.0994 | – | 1716.5
308.15 K, x1 = 0.1007 | – | 1716.8
308.15 K, x1 = 0.1024 | 1077.49 | –
308.15 K, x1 = 0.109 | – | 1717.9
308.15 K, x1 = 0.1109 | – | 1718
308.15 K, x1 = 0.1132 | – | 1718.1
308.15 K, x1 = 0.1217 | – | 1717.8
308.15 K, x1 = 0.1324 | – | 1716.5
308.15 K, x1 = 0.1412 | – | 1714.8
308.15 K, x1 = 0.1511 | 1090.92 | –
308.15 K, x1 = 0.1526 | – | 1711.8
308.15 K, x1 = 0.1639 | – | 1708.3
308.15 K, x1 = 0.1746 | – | 1704.7
308.15 K, x1 = 0.1895 | – | 1699.2
308.15 K, x1 = 0.2006 | 1098.36 | –
308.15 K, x1 = 0.2231 | – | 1686
308.15 K, x1 = 0.25 | 1102.65 | –
308.15 K, x1 = 0.2635 | – | 1670.6
308.15 K, x1 = 0.3012 | 1105.35 | –
308.15 K, x1 = 0.3091 | – | 1655
308.15 K, x1 = 0.3628 | – | 1639.5
308.15 K, x1 = 0.4024 | 1108.26 | –
308.15 K, x1 = 0.4253 | – | 1625
308.15 K, x1 = 0.4964 | 1109.67 | –
308.15 K, x1 = 0.5089 | – | 1610.1
308.15 K, x1 = 0.5893 | – | 1598.9
308.15 K, x1 = 0.5985 | 1110.59 | –
308.15 K, x1 = 0.6676 | – | 1589.6
308.15 K, x1 = 0.7018 | 1111.14 | –
308.15 K, x1 = 0.7748 | – | 1579.7
308.15 K, x1 = 0.8613 | – | 1574.9
308.15 K, x1 = 0.9148 | – | 1573.1
308.15 K, x1 = 0.9645 | – | 1571.2
308.15 K, x1 = 1 | – | 1568.7
